Assay results as given in patent US20230391892A1.
pKd: −log10 of the molar value.

Columns and labels:
[1] = biological target: TGF-β1 (human) (UniProt P01137)
[2] = biological target: TGF-β3 (human) (UniProt P10600)
[3] = biological target: TGF-β1 (human) (UniProt P01137); experiment: BLI (Octet RED96), antagonist captured on biosensor, ligand in solution

## A120 (from UniProt P0DOX7 1-214)
[1]
  IC50; neutralisation of TGF-β1 (1 nM) signalling, C2C12-CAGA-luc Smad2/3 luciferase reporter cells (RLU): 1900 pM
[2]
  IC50; neutralisation of TGF-β3 (1 nM) signalling, C2C12-CAGA-luc Smad2/3 luciferase reporter cells (RLU): 100 pM

## A120 (from UniProt P0DOX7 1-214) (other; other documents disagree on this pair)
[3]
  pKd: 9.29
